Source: patent US20090233871A1, “Complexed polypeptide and adjuvant for improved vaccines” (priority 2004, published 2009)

Test system: CD8+ CTLs, T2 stimulators pulsed with polypeptide
Type: in vivo, HLA-A2 transgenic mice
Settings: 100 μg CpG, equimolar CpG:peptide, s.c., day 10 (FIG. 8)

AAGIGILTV
priming on addition of a KCSRNR amino acid sequence vs native polypeptide: increased priming
